What was measured:
ICR mice = experiment: mouse rotarod model, sedative effect (Example 11); settings: U50488 5 mg/kg intraperitoneal
κ opioid receptor = κ opioid receptor (Homo sapiens (Human), UniProt P41145); experiment: radioligand-receptor binding assay, 3H-U69593 displacement; settings: read-out: κ binding affinity Ki; CHO cell membranes, 1.4-1.5 nM 3H-U69593

Amino acid sequences for entries named in this document (tags omitted). A change or cut given only in a name is not applied to a line headed by its entry.
UniProt P41145: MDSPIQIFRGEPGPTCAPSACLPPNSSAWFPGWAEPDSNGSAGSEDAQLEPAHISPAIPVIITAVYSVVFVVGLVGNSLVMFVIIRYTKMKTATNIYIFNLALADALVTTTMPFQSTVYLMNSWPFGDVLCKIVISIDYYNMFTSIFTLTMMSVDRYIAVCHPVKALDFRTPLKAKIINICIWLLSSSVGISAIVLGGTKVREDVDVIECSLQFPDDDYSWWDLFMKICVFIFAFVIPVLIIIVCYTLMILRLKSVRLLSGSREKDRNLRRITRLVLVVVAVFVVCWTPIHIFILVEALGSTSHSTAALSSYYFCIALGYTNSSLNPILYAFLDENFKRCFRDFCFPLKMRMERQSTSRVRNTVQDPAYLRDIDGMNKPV

Question: What does the source list for (±)-trans-U50488?
Answer: retention time on the rotarod, 30 min after administration (ICR mice; 30 min): 100.7 ± 23.9 s; sedative effect (in words) (ICR mice; 30 minutes after administration): significant sedative effect; retention time on the rotarod, 60 min after administration (ICR mice; 60 min): 181.2 ± 1.966 s; retention time on the rotarod, 120 min after administration (ICR mice; 120 min): 223.7 ± 11.7 s; Ki (κ opioid receptor): 2.19 nM

From US11912716B2 (priority 2018, dated 2024)
